Legend:
[1] = target: T1, bovine pancreatic trypsin (Sigma T1426) (bovine, UniProt P00760); assay: cell-based or functional assay
[2] = target: T1, bovine pancreatic trypsin (Sigma T1426); assay: cell-based or functional assay; remark: listed apart in the source

Sequences of proteins named here, by UniProt entry; tags and fusion partners are left off. Residues count along the entry.
UniProt P00760, 24-246: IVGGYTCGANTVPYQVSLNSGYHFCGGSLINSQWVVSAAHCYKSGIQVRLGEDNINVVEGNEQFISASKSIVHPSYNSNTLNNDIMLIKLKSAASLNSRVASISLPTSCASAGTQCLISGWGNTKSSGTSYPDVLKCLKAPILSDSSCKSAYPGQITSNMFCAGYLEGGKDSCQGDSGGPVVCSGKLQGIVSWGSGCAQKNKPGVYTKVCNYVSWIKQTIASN

| % Activity (compared to aaT positive control) [1] [%] | Activity units (-ΔVi/µM) [1] | IC50 (µM), equilibrium trypsin inhibition assay [2] [µM] | Binder |
| --- | --- | --- | --- |
| 80 | 0.054 -ΔVi/µM |  | XTEN_AM923-aaT (other) MAEPAGSPTSTEEGASPGTSSTGSPGSSTPSGATGSPGSSTPSGATGSPGTSTEPSEGSAPGSEPATSGSETPGSPAGSPTSTEEGSTSSTAESPGPGTSTPESGSASPGSTSESPSGTAPGSTSESPSGTAPGTSTPESGSASPGTSTPESGSASPGSEPATSGSETPGTSESATPESGPGSPAGSPTSTEEGTSTEPSEGSAPGTSESATPESGPGTSTEPSEGSAPGTSTEPSEGSAPGSPAGSPTSTEEGTSTEPSEGSAPGTSTEPSEGSAPGTSESATPESGPGTSESATPESGPGTSTEPSEGSAPGTSTEPSEGSAPGTSESATPESGPGTSTEPSEGSAPGSEPATSGSETPGSPAGSPTSTEEGSSTPSGATGSPGTPGSGTASSSPGSSTPSGATGSPGTSTEPSEGSAPGTSTEPSEGSAPGSEPATSGSETPGSPAGSPTSTEEGSPAGSPTSTEEGTSTEPSEGSAPGASASGAPSTGGTSESATPESGPGSPAGSPTSTEEGSPAGSPTSTEEGSTSSTAESPGPGSTSESPSGTAPGTSPSGESSTAPGTPGSGTASSSPGSSTPSGATGSPGSSPSASTGTGPGSEPATSGSETPGTSESATPESGPGSEPATSGSETPGSTSSTAESPGPGSTSSTAESPGPGTSPSGESSTAPGSEPATSGSETPGSEPATSGSETPGTSTEPSEGSAPGSTSSTAESPGPGTSTPESGSASPGSTSESPSGTAPGTSTEPSEGSAPGTSTEPSEGSAPGTSTEPSEGSAPGSSTPSGATGSPGSSPSASTGTGPGASPGTSSTGSPGSEPATSGSETPGTSESATPESGPGSPAGSPTSTEEGSSTPSGATGSPGSSPSASTGTGPGASPGTSSTGSPGTSESATPESGPGTSTEPSEGSAPGTSTEPSEGSAPGEDPQGDAAQKTDTSHHDQDHPTFNKITPNLAEFAFSLYRQLAHQSNSTNIFFSPVSIATAFAMLSLGTKADTHDEILEGLNFNLTEIPEAQIHEGFQELLRTLNQPDSQLQLTTGNGLFLSEGLKLVDKFLEDVKKLYHSEAFTVNFGDTEEAKKQINDYVEKGTQGKIVDLVKELDRDTVFALVNYIFFKGKWERPFEVKDTEEEDFHVDQVTTVKVPMMKRLGMFNIQHCKKLSSWVLLMKYLGNATAIFFLPDEGKLQHLENELTHDIITKFLENEDRRSASLHLPKLSITGTYDLKSVLGQLGITKVFSNGADLSGVTEEAPLKLSKAVHKAVLTIDEKGTEAAGAMFLEAIPMSIPPEVKFNKPFVFLMIEQNTKSPLFMGKVVNPTQK |
| 84 | 0.057 -ΔVi/µM | 0.48 | aaT-XTEN_AM875 (other) MAEDPQGDAAQKTDTSHHDQDHPTFNKITPNLAEFAFSLYRQLAHQSNSTNIFFSPVSIATAFAMLSLGTKADTHDEILEGLNFNLTEIPEAQIHEGFQELLRTLNQPDSQLQLTTGNGLFLSEGLKLVDKFLEDVKKLYHSEAFTVNFGDTEEAKKQINDYVEKGTQGKIVDLVKELDRDTVFALVNYIFFKGKWERPFEVKDTEEEDFHVDQVTTVKVPMMKRLGMFNIQHCKKLSSWVLLMKYLGNATAIFFLPDEGKLQHLENELTHDIITKFLENEDRRSASLHLPKLSITGTYDLKSVLGQLGITKVFSNGADLSGVTEEAPLKLSKAVHKAVLTIDEKGTEAAGAMFLEAIPMSIPPEVKFNKPFVFLMIEQNTKSPLFMGKVVNPTQKGGTSTEPSEGSAPGSEPATSGSETPGSPAGSPTSTEEGSTSSTAESPGPGTSTPESGSASPGSTSESPSGTAPGSTSESPSGTAPGTSTPESGSASPGTSTPESGSASPGSEPATSGSETPGTSESATPESGPGSPAGSPTSTEEGTSTEPSEGSAPGTSESATPESGPGTSTEPSEGSAPGTSTEPSEGSAPGSPAGSPTSTEEGTSTEPSEGSAPGTSTEPSEGSAPGTSESATPESGPGTSESATPESGPGTSTEPSEGSAPGTSTEPSEGSAPGTSESATPESGPGTSTEPSEGSAPGSEPATSGSETPGSPAGSPTSTEEGSSTPSGATGSPGTPGSGTASSSPGSSTPSGATGSPGTSTEPSEGSAPGTSTEPSEGSAPGSEPATSGSETPGSPAGSPTSTEEGSPAGSPTSTEEGTSTEPSEGSAPGASASGAPSTGGTSESATPESGPGSPAGSPTSTEEGSPAGSPTSTEEGSTSSTAESPGPGSTSESPSGTAPGTSPSGESSTAPGTPGSGTASSSPGSSTPSGATGSPGSSPSASTGTGPGSEPATSGSETPGTSESATPESGPGSEPATSGSETPGSTSSTAESPGPGSTSSTAESPGPGTSPSGESSTAPGSEPATSGSETPGSEPATSGSETPGTSTEPSEGSAPGSTSSTAESPGPGTSTPESGSASPGSTSESPSGTAPGTSTEPSEGSAPGTSTEPSEGSAPGTSTEPSEGSAPGSSTPSGATGSPGSSPSASTGTGPGASPGTSSTGSPGSEPATSGSETPGTSESATPESGPGSPAGSPTSTEEGSSTPSGATGSPGSSPSASTGTGPGASPGTSSTGSPGTSESATPESGPGTSTEPSEGSAPGTSTEPSEGSAP |

Reference: patent publication US20110288005A1 (AMUNIX OPERATING INC A DELWARE, published 2011)
